Laboratory results published in ChEMBL document CHEMBL1148352, “1,2,4-triazolo[4,3-a]quinoxalin-1-one moiety as an attractive scaffold to develop new potent and selective human A3 adenosine receptor antagonists: synthesis, pharmacological, and ligand-receptor modeling studies” (J Med Chem, 2004).

By UniProt entry, the sequences of proteins in these tests, tags left out.
UniProt P28190, whole entry: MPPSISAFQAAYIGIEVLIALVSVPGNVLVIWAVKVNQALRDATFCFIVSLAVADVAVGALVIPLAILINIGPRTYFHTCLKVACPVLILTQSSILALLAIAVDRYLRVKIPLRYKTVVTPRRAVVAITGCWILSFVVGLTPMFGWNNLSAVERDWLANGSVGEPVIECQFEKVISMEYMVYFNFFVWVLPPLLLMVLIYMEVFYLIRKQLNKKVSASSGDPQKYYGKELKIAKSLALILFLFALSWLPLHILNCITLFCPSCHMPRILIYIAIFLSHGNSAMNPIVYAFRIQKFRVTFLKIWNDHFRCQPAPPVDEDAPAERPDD

Assays:
Adenosine receptor A1 = Adenosine receptor A1 (Bos taurus, UniProt P28190)
[1] = system: Adenosine receptor A2a (Bos taurus); assay: Inhibition of [3H]-CGS- 21680 binding to adenosine A2a receptor of bovine striatal membranes

pKi (Adenosine receptor A1)	I [1] [%]	Structure (SMILES)
8.06	–	Nc1ccc(-n2nc3c(=O)[nH]c4ccccc4n3c2=O)cc1
–	0	COc1ccc(-n2nc3c(=O)[nH]c4ccccc4n3c2=O)cc1

pKi: −log10 of the molar value.
